Values of other authors, collected in patent US20070197573A1, “Compositions and methods in the treatment of bone metabolic disorders” (priority 2005, published 2007).

Sequences of proteins named here, by UniProt entry; tags and fusion partners are left off.
UniProt P35372, whole entry, species assumed: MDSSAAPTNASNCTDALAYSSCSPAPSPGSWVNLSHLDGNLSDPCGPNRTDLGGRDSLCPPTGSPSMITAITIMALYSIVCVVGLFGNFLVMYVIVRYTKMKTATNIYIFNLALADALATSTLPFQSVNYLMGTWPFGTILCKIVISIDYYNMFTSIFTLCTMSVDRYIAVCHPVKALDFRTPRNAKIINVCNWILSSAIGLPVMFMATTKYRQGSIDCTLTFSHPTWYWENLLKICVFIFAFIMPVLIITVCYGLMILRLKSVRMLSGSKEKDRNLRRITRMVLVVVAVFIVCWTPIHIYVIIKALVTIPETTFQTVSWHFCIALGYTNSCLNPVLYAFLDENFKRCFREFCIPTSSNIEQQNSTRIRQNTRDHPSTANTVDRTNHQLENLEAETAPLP

Target: μ opioid receptor (Homo sapiens, UniProt P35372)
Conditions: cited from earlier work

Substance: CTAP
- type of activity at receptors exhibiting spontaneous activity: neutral antagonist
